Reference: US20140274782A1, “AFFINITY REAGENTS AND METHODS FOR DETECTION, PURIFICATION, AND PROTEOMIC ANALYSIS OF METHYLATED PROTEINS” (The Board of Trustees of the Leland Stanford Junior …, priority 2013, published 2014)

Columns and labels:
G9a and GLP = molecular target: T1, G9a and GLP (Homo sapiens, UniProt Q96KQ7+Q9H9B1); assay: Triple SILAC pull-down after UNC0638 treatment of 293T cells, DMSO/UNC0638 ratio of protein captured by 3×MBT; assay type: cell-based; set-up: cells were treated for 24 hours with UNC0638 at 2.5 μM or DMSO vehicle control; endogenous in cells; host or cells: HEK 293T; details: for Relative to UNC0638 UNC Heavy: UNC0638 in heavy SILAC media; for Relative to UNC0638 UNC Light: UNC0638 in light SILAC media; for Relative to UNC0638 Average: average of UNC Light and UNC Heavy experiments;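 for all read-outs here: mass spectrometry (Q-Exactive) SILAC quantitation, DMSO/UNC0638 ratio computed after subtracting 3×MBTD355N mutant pull-down background, only proteins with at least twofold 3×MBT over mutant signal considered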
T1 sequence (Q96KQ7 2-1210 limits assumed): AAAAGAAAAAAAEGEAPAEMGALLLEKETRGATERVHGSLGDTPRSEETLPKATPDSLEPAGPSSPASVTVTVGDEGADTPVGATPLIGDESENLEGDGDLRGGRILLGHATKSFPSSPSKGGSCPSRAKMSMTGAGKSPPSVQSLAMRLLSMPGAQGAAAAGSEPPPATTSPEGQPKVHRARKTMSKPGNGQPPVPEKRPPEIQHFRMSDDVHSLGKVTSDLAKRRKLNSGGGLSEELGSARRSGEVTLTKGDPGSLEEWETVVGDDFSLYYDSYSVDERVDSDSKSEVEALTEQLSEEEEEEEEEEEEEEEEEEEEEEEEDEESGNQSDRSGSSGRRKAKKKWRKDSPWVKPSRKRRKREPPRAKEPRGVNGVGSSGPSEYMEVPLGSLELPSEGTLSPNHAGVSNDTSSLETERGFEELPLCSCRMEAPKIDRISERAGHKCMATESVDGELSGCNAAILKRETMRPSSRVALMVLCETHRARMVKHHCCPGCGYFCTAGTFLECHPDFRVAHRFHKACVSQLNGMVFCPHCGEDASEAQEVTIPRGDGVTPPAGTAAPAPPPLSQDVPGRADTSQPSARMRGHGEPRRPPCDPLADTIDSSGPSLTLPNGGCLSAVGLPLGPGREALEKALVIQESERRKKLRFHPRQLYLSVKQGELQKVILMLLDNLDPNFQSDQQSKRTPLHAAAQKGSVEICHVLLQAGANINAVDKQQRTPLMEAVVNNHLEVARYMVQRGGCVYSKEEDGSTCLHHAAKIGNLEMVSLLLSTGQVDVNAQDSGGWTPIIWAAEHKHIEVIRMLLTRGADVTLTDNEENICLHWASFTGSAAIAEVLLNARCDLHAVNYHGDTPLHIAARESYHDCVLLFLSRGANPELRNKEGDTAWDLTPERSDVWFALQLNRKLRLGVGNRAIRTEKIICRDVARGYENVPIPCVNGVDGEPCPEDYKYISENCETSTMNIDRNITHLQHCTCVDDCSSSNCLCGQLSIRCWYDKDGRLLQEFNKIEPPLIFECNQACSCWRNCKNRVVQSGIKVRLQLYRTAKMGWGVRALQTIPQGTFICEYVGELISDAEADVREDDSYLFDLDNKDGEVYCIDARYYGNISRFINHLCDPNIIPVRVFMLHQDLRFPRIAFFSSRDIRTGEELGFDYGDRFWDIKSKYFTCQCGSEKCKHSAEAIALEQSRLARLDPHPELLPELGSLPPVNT
T1 sequence (Q9H9B1 2-1298 limits assumed): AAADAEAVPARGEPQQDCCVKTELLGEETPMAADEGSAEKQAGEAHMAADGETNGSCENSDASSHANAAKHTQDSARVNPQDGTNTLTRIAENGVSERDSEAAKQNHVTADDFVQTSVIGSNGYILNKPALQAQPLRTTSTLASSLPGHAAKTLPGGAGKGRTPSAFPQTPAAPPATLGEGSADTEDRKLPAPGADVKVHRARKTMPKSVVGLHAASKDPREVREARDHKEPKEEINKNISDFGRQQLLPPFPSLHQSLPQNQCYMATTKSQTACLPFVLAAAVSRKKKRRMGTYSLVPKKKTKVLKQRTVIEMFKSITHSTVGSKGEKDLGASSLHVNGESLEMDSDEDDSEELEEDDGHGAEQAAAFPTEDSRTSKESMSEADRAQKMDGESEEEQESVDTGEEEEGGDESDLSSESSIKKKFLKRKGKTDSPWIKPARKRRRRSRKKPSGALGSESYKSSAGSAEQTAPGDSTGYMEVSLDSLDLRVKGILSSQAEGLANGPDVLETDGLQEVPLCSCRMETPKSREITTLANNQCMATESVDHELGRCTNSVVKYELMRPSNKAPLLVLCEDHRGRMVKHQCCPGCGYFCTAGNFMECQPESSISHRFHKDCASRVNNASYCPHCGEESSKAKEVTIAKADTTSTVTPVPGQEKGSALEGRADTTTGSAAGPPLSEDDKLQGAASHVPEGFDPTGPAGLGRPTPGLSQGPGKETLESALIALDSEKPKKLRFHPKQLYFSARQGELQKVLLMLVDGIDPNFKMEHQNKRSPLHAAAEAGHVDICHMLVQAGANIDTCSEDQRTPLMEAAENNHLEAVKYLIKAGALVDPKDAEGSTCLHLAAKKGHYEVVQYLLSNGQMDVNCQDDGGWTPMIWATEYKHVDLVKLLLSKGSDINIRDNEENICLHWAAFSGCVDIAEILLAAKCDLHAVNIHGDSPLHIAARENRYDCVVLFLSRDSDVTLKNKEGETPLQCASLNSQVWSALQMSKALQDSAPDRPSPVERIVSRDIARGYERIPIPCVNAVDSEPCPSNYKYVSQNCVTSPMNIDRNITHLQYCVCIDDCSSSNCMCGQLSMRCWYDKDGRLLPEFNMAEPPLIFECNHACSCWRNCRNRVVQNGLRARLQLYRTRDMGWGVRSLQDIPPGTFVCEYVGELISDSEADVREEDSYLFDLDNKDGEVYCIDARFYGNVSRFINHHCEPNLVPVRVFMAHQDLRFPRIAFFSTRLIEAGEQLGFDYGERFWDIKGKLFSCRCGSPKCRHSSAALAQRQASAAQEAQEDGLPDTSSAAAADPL

3×MBT domain of L3MBTL1 = assay: Triple SILAC pull-down, 3xMBT/3xMBTD355N ratio (cytoplasmic, nuclear and chromatin fractions of 293T cells); assay type: binding, human; details: for 3xMBT/D355N UNC Heavy: experiment with UNC0638 in heavy SILAC media; for 3xMBT/D355N UNC Light: experiment with UNC0638 in light SILAC media;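 for all read-outs here: proteins quantified with MaxQuant, requiring at least two unique peptides and quantification in both label directions, normalized to the mean of proteins from a digested loading control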
[1] = SILAC ratio DMSO/UNC0638 of protein pulled down with 3xMBT
[2] = SILAC ratio, pull-down 3xMBT vs 3xMBTD355N
[3] = SILAC ratio DMSO relative to UNC0638, pull-down with 3xMBT, all values in log base 2
[4] = SILAC ratio 3xMBT vs 3xMBTD355N pull-down, 293T cells, all values in log base 2

| Substance | Relative to UNC0638 UNC Heavy (G9a and GLP; [1]) [log base 2] | Relative to UNC0638 UNC Light (G9a and GLP; [1]) [log base 2] | Relative to UNC0638 Average (G9a and GLP) [log base 2] | 3xMBT/D355N UNC Heavy (3×MBT domain of L3MBTL1; [2]) [log base 2] | 3xMBT/D355N UNC Light (3×MBT domain of L3MBTL1; [2]) [log base 2] | Relative to UNC0638 UNC Heavy (G9a and GLP; [3]) [log base 2] | Relative to UNC0638 UNC Light (G9a and GLP; [3]) [log base 2] | Relative to UNC0638 Average (G9a and GLP; all values in log base 2) [log base 2] | 3xMBT/D355N UNC Heavy (3×MBT domain of L3MBTL1; [4]) [log base 2] | 3xMBT/D355N UNC Light (3×MBT domain of L3MBTL1; [4]) [log base 2] |
| --- | --- | --- | --- | --- | --- | --- | --- | --- | --- | --- |
| C4orf27 [Hit C4orf27] | 0.09 | 0.21 | 0.15 | 3.45 | 3.14 |  |  |  |  |  |
| PRRC2C |  |  |  |  |  | 0.19 | −0.44 | −0.13 | 3.32 | 2.21 |
